Reference: patent US20040266723A1, “Antiviral agents for treatment of Flaviviridae infections” (priority 2000, published 2004)

System: BVDV
Experiment: BVDV real time RT-PCR antiviral assay in MDBK cells
Type: cell-based, Bovine viral diarrhea virus (BVDV), strain NADL
Settings: dose-response, 24 hours post-infection
Experimental: As one illustration of this method, in the case of BVDV in MDBK cells, in a first step, viral RNA is isolated from 140 μL of the cell culture supernatant by means of a commercially available column (Viral RNA extraction kit, QiaGen, CA). The viral RNA is then eluted from the column to yield a total volume of 60 μL, and subsequently amplified with a quantitative RT-PCR protocol using a suitable primer for the BVDV NADL strain. A quenched fluorescent probe molecule is hybridized to the BVDV DNA, which then undergoes exonucleolytic degradation resulting in a detectable fluorescent signal. Therefore, the RT-PCR amplified DNA was detected in real time by monitoring the presence of fluorescence signals. The TaqMan probe molecule (5′ 6-fam-[…]-tamara 3′ [Sequence ID No. 7] and primers (sense: 5′-[…]-3′ [Sequence ID No. 8]; and antisense: 5′-[…]-3′ [Sequence ID No. 9]) were designed with the aid of the Primer Express software (PE-Applied Biosystems) to be complementary to the BVDV NADL NS5B region. A total of 10 μL of RNA was analyzed in a 50 μL RT-PCR mixture. Reagents and conditions used in quantitative PCR were purchased from PE-Applied Biosystems. The standard curve that was created using the undiluted inoculum virus ranged from 6000 plaque forming units (PFU) to 0.6 PFU per RT-PCR mixture. […]

COc1c(C)c2c(c(O)c1CCOP(=O)(O)CP(=O)(O)OC[C@H]1O[C@@H](n3cnc4c(N)ncnc43)C(O)[C@H]1O)C(=O)OC2 (stereo partly shown) [C2-MAD]
intracellular viral RNA reduction, relative effectiveness (FIG. 9): more effective than Tiazofurin
